Chains of the proteins cited; added tags and fusions are not shown.
UniProt O43613, whole entry: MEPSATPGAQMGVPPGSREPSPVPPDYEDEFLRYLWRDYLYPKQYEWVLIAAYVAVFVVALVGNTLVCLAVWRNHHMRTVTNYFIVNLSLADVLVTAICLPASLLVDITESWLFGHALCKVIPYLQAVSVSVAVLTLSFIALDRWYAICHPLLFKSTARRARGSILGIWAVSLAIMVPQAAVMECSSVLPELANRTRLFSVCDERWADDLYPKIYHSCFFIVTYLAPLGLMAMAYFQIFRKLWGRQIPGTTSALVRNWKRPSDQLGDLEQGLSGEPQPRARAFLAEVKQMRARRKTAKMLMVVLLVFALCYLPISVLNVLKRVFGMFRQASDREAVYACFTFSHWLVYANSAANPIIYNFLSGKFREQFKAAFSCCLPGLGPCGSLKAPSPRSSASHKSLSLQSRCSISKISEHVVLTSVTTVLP

In patent US9611262B2, “Substituted 2-azabicycles and their use as orexin receptor modulators” (JANSSEN PHARMACEUTICA NV, priority 2014, dated 2017):

What was measured:
rat orexin 1 receptor = rat orexin 1 receptor (Rattus norvegicus, UniProt P56718); assay: Rat orexin 1 receptor radioligand binding (competitive); settings: HEK293 cells stably expressing rat orexin 1 receptor; 4 nM radioligand; averages of 2-20 runs; read-out: rOX1 Ki
Protocol: (§1) The in vitro affinity of the compounds of the invention for the rat/human orexin 1 and human orexin 2 receptors was determined by competitive radioligand binding using [^3H](1-(5-(2-fluoro-phenyl)-2-methyl-thiazol-4-yl)-1-((S)-2-(5-phenyl-(1,3,4)oxadiazol-2-ylmethyl)-pyrrolidin-1-yl)-methanone) (Langmead et al., 2004) and [^3H]EMPA (n-ethyl-2[96-methoxy-pyridin-3-yl)-(toluene-2-sulfonyl)-amino]-N-pyridin-3-ylmethyl acetamide), respectively (Langmead et al., 2004, British Journal of Pharmacology 141:340-346; Malherbe et al., 2004, British Journal of Pharmacology 156:1326-41).
(§2) Data are analyzed using pc-Sandy macro and graphed on Graphpad Prism 5. For analysis, each concentration point is averaged from triplicate values and the averaged values are plotted on Graphpad Prism. The IC50 was determined by applying the following equation (GraphPad Prism 5.0, San Diego) for one site competition where X=log (concentration) and Y=specific binding. Top denotes the total [^3H]— (1-(5-(2-fluoro-phenyl)-2-methyl-thiazol-4-yl)-1-((S)-2-(5-phenyl-(1,3,4)oxadiazol-2-ylmethyl)-pyrrolidin-1-yl)-methanone) binding, bottom denotes the nonspecific [^3H]— (1-(5-(2-fluoro-phenyl)-2-methyl-thiazol-4-yl)-1-((S)-2-(5-phenyl-(1,3,4)oxadiazol-2-ylmethyl)-pyrrolidin-1-yl)-methanone) binding. Graphpad Prism calculates Ki value from IC50 and the pre-determined Kd values for [^3H]— (1-(5-(2-fluoro-phenyl)-2-methyl-thiazol-4-yl)-1-((S)-2-(5-phenyl-(1,3,4)oxadiazol-2-ylmethyl)-pyrrolidin-1-yl)-methanone) and [^3H]-EMPA. The Ki for each compound is then uploaded into 3DX. Each run comprises individual compounds in triplicate. The data in Table 1 and Table 2 represent averages from between 2-20 runs
(§3) Rat and Human Orexin 1 Receptor Radioligand Binding Studies
(§4) Human Embryonic Kidney 293 cells (HEK293) stably expressing rat orexin 1 receptor (Genebank accession number NM_001525) or Chinese ovary cells (CHO) stably expressing human orexin 1 receptor (Genebank accession number […]) were grown to confluency in DMEM (Hyclone, cat # SH30022), 10% FBS, 1× Pen/Strep, 1× sodium pyruvate, 10 mM HEPES, 600 μg/mL G418 and DMEM/F12 (Gibco, Cat #11039), 10% FBS, 1× Pen/Strep, 600 μg/mL G418 media, respectively on 150 cm^2 tissue culture plates, washed with 5 mM EDTA in PBS (HyClone Dulbecco's Phosphate Buffered Saline 1× with Calcium and Magnesium, Cat # SH30264.01, hereafter referred to simply as PBS) and scraped into 50 ml tubes. After centrifugation (2K×G, 5 min at 4° C.), the supernatant was aspirated and the pellets frozen and stored at −80° C. Cells were resuspended in PBS in the presence of 1 tablet of protease inhibitor cocktail (Roche, Cat. #11836145001) per 50 mL. […] Competition binding experiments in 96 well polypropylene plates were performed using [^3H]— (1-(5-(2-fluoro-phenyl)-2-methyl-thiazol-4-yl)-1-((S)-2-(5-phenyl-(1,3,4)oxadiazol-2-ylmethyl)-pyrrolidin-1-yl)-methanone) (Moraveck Corporation, specific activity=35.3 Ci/mmol), diluted to a 10 nM concentration in PBS (4 nM final). Compounds were solubilized in 100% DMSO (Acros Organics, Cat. #61042-1000) and tested over a range of 7 concentrations (from 0.1 nM to 10 μM). The final concentration of DMSO in the reactions is equal to or less than 0.1%. Total and nonspecific binding was determined in the absence and presence of 10 μM almorexant. The total volume of each reaction is 200 μL (20 μL of diluted compounds, 80 μL of [^3H]— (1-(5-(2-fluoro-phenyl)-2-methyl-thiazol-4-yl)-1-((S)-2-(5-phenyl-(1,3,4)oxadiazol-2-ylmethyl)-pyrrolidin-1-yl)-methanone) diluted in PBS and 100 μL of the cell suspension). Reactions were run for 60 min at room temperature and terminated by filtration through GF/C filter plates (PerkinElmer, Cat. #6005174) presoaked in 0.3% polyethylenimine using the cell harvester (PerkinElmer Filtermate). The plates were washed 3 times by aspirating 30 ml PBS through the plates. Plates were dried in 55° C. oven for 60 min, scintillation fluid was added, and the radioactivity was counted on a Topcount (Packard). […]

human orexin 1 receptor = human orexin 1 receptor (Homo sapiens (Human), UniProt O43613); assay: Human orexin 1 receptor radioligand binding (competitive); settings: CHO cells stably expressing human orexin 1 receptor; 4 nM radioligand; averages of 2-20 runs; read-out: hOX1 Ki
Protocol: as §1, §2, §3, §4

Row | SMILES | Ki (rat orexin 1 receptor) | Ki (human orexin 1 receptor)
1 | CC1C2CC(Oc3ccc(C(F)(F)F)cn3)C(C2)N1C(=O)c1cccc(F)c1-c1ncc(F)cn1 (single isomer, unassigned) [Example 20B, (3-fluoro-2-(5-fluoropyrimidin-2-yl)phenyl)((1S*,3R*,4R*,6R*)-3-methyl-6-((5-(trifluoromethyl)pyridin-2-yl)oxy)-2-azabicyclo[2.2.1]heptan-2-yl)methanone] | 4 nM | 6 nM
2 | CC1C2CC(Oc3ccc(C(F)(F)F)cn3)C(C2)N1C(=O)c1cccc(F)c1-c1ncc(F)cn1 (single isomer, unassigned) [Example 20A, (3-fluoro-2-(5-fluoropyrimidin-2-yl)phenyl)((1R*,3S*,4S*,6S*)-3-methyl-6-((5-(trifluoromethyl)pyridin-2-yl)oxy)-2-azabicyclo[2.2.1]heptan-2-yl)methanone] | 115 nM | 136 nM
3 | CC1C2CC(Oc3ccc(C(F)(F)F)cn3)C(C2)N1C(=O)c1cc(F)ccc1-c1ncccn1 (single isomer, unassigned) [Example 18A, (5-fluoro-2-(pyrimidin-2-yl)phenyl)((1R*,3S*,4S*,6S*)-3-methyl-6-((5-(trifluoromethyl)pyridin-2-yl)oxy)-2-azabicyclo[2.2.1]heptan-2-yl)methanone] | 142 nM | 167 nM
4 | CC1C2CC(Oc3ccc(C(F)(F)F)cn3)C(C2)N1C(=O)c1cccc(F)c1-c1ncc(F)cn1 (racemic) [Example 20, (R/S)-(3-fluoro-2-(5-fluoropyrimidin-2-yl)phenyl)(3-methyl-6-((5-(trifluoromethyl)pyridin-2-yl)oxy)-2-azabicyclo[2.2.1]heptan-2-yl)methanone] | 12 nM | 15 nM
5 | Cc1ccc(-c2ncccn2)c(C(=O)N2C(C)C3CC(Oc4ccc(C(F)(F)F)cn4)C2C3)n1 (single isomer, unassigned) [Example 16B, (6-methyl-3-(pyrimidin-2-yl)pyridin-2-yl)((1S*,3R*,4R*,6R*)-3-methyl-6-((5-(trifluoromethyl)pyridin-2-yl)oxy)-2-azabicyclo[2.2.1]heptan-2-yl)methanone] | 7 nM | 6 nM
6 | [2H]C1([2H])[C@H]2C[C@@H]([C@@H]1Oc1ccc(C(F)(F)F)cn1)N(C(=O)c1nc(C)ccc1-n1nccn1)[C@@H]2C [Example 198, [(1R,3R,4S,6R)-2,2-dideuterio-6-methyl-3-[[5-(trifluoromethyl)-2-pyridyl]oxy]-5-azabicyclo[2.2.1]heptan-5-yl]-[6-methyl-3-(triazol-2-yl)-2-pyridyl]methanone] | 5 nM | 5 nM
7 | Cc1ccc(C(=O)N2C(C)C3CC(Oc4ccc(C(F)(F)F)cn4)C2C3)c(-n2nccn2)n1 (racemic) [Example 10, (R/S)-(6-methyl-2-(2H-1,2,3-triazol-2-yl)pyridin-3-yl)(3-methyl-6-((5-(trifluoromethyl)pyridin-2-yl)oxy)-2-azabicyclo[2.2.1]heptan-2-yl)methanone] | 14 nM | 23 nM
8 | CC1C2CC(Oc3ccc(C(F)(F)F)cn3)C(C2)N1C(=O)c1ccc(F)cc1-c1ncccn1 (single isomer, unassigned) [Example 17B, (4-fluoro-2-(pyrimidin-2-yl)phenyl)((1S*,3R*,4R*,6R*)-3-methyl-6-((5-(trifluoromethyl)pyridin-2-yl)oxy)-2-azabicyclo[2.2.1]heptan-2-yl)methanone] | 4 nM | 4 nM
9 | [2H]C1([2H])[C@H]2C[C@@H]([C@@H]1Oc1ccc(C(F)(F)F)cn1)N(C(=O)c1ncc(C)cc1-n1nccn1)[C@@H]2C [Example 200, [(1R,3R,4S,6R)-2,2-dideuterio-6-methyl-3-[[5-(trifluoromethyl)-2-pyridyl]oxy]-5-azabicyclo[2.2.1]heptan-5-yl]-[5-methyl-3-(triazol-2-yl)-2-pyridyl]methanone] | 7 nM | 7 nM
10 | Cc1cnc(-n2nccn2)c(C(=O)N2C(CF)C3CC(Oc4ccc(C(F)(F)F)cn4)C2C3)c1 (racemic) [Example 72] | 22 nM | 22 nM
11 | C[C@@H]1[C@H]2C[C@@H](Oc3cnc4cc(F)c(F)cc4n3)[C@H](C2)N1C(=O)c1cccc(F)c1-n1nccn1 (relative stereo) [Example 190, ((1S*,3R*,4R*,6R*)-6-((6,7-difluoroquinoxalin-2-yl)oxy)-3-methyl-2-azabicyclo[2.2.1]heptan-2-yl)(3-fluoro-2-(2H-1,2,3-triazol-2-yl)phenyl)methanone] | 10 nM | 8 nM

More lines, now with the values ahead:

Row | Ki (rat orexin 1 receptor) | Ki (human orexin 1 receptor) | SMILES
12 | 38 nM | 30 nM | CC(C)CC1C2CC(Oc3ccc(C(F)(F)F)cn3)C(C2)N1C(=O)c1cccc(F)c1-c1ncccn1 (racemic) [Example 211, (R/S)-(3-fluoro-2-pyrimidin-2-yl-phenyl)-[2-isobutyl-5-[[5-(trifluoromethyl)-2-pyridyl]oxy]-3-azabicyclo[2.2.1]heptan-3-yl]methanone]
13 | 62 nM | 64 nM | CCOc1ccc(C)nc1C(=O)N1C(C)C2CC(Oc3ccc(C(F)(F)F)cn3)C1C2 (racemic) [Example 13, (R/S)-(3-ethoxy-6-methylpyridin-2-yl)(3-methyl-6-((5-(trifluoromethyl)pyridin-2-yl)oxy)-2-azabicyclo[2.2.1]heptan-2-yl)methanone]
14 | 20 nM | 11 nM | CC1C2CC(Nc3cnc(C(F)(F)F)cn3)C(C2)N1C(=O)c1ccccc1-n1nccn1 (racemic) [Example 5, (R/S)-(2-(2H-1,2,3-triazol-2-yl)phenyl)(3-methyl-6-((5-(trifluoromethyl)pyrazin-2-yl)amino)-2-azabicyclo[2.2.1]heptan-2-yl)methanone]
15 | 7 nM | 9 nM | Cc1ccc(C(=O)N2[C@H](C)[C@H]3C[C@@H](Oc4ccc(C(F)(F)F)cn4)[C@@H]2C3)c(-n2nccn2)n1 (relative stereo) [Example 25, (6-methyl-2-(2H-1,2,3-triazol-2-yl)pyridin-3-yl)((1S*,3R*,4R*,6R*)-3-methyl-6-((5-(trifluoromethyl)pyridin-2-yl)oxy)-2-azabicyclo[2.2.1]heptan-2-yl)methanone]
16 | 4 nM | 4 nM | C[C@@H]1[C@H]2C[C@@H](Nc3ccc(C(F)(F)F)cn3)[C@H](C2)N1C(=O)c1ncccc1-n1nccn1 (relative stereo) [Example 64, (3-(2H-1,2,3-triazol-2-yl)pyridin-2-yl)((1S*,3R*,4S*,6R*)-3-methyl-6-((5-(trifluoromethyl)pyridin-2-yl)amino)-2-azabicyclo[2.2.1]heptan-2-yl)methanone]
17 | 22 nM | 36 nM | Cc1ccc(-n2nccn2)c(C(=O)N2C(C)C3CC(Nc4cnc(C(F)(F)F)cn4)C2C3)n1 (single isomer, unassigned) [Example 6B, (6-methyl-3-(2H-1,2,3-triazol-2-yl)pyridin-2-yl)((1S*,3S*,4S*,6R*)-3-methyl-6-((5-(trifluoromethyl)pyrazin-2-yl)amino)-2-azabicyclo[2.2.1]heptan-2-yl)methanone]
